# Earlier results in publication PMC3653948, “PDZ Domain-Mediated Interactions of G Protein-Coupled Receptors with Postsynaptic Density Protein 95: Quantitative Characterization of Interactions” (PLoS ONE, 2013).
# Target: CFTR (Homo sapiens) (UniProt P13569)
# Settings: cited from earlier work
substance,measurement,value
CAL PDZ (from UniProt Q9HD26),Kd,> 600 µM
